{
  "sequences": {"note": "By UniProt entry, the sequences of proteins in these tests, tags left out.", "UniProt P09471, whole entry": "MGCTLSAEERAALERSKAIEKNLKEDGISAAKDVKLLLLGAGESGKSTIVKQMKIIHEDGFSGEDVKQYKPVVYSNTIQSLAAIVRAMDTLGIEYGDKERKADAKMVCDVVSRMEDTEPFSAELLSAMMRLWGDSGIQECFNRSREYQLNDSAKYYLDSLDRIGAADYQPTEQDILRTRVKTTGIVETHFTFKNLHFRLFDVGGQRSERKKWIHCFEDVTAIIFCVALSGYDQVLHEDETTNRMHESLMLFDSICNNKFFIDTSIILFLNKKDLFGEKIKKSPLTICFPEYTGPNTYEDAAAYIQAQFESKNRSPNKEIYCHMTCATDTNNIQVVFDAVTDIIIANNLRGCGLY"},
  "source": "PubChem BioAssay AID1439",
  "about": "(NMMLSC, 2008)",
  "note": "The entries are a selection whose mix differs from that of the whole data set. Some tests of the compounds listed are not included; inactive here does not mean inactive elsewhere. Results filed as inconclusive are left out. Calls of active or inactive are those of the source. No stated cut-off is given here; in the data, active means binding response below about 49% or above about 150%; inconclusive means no clear call, values can overlap the other calls; inactive means in between.",
  "data": [
    {"biological_target": "Guanine nucleotide-binding protein G(o) subunit alpha (Homo sapiens) (UniProt P09471)", "assay": "RGS7-Galphao binding modulators, primary screen, biochemical, multiplexed bead flow cytometry (AID 1439);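 further: fluorescent Galphao held in activated GDP-AlF4 state binding bead-coupled RGS7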", "details": "at 10 µM, actives lie on both sides", "values": [
      {"smiles": "O=C(NCC1(N2CCCCC2)CCCCC1)c1cc([N+](=O)[O-])ccc1Cl", "binding response (% of control)": "inactive: 104%"},
      {"smiles": "CC(C)N1C(=O)CC2(CCN(CCOC(=O)C(O)(c3ccccc3)c3ccccc3)CC2)C1=O", "binding response (% of control)": "inactive: 102%"},
      {"smiles": "CN(C)C1CCCC1OC(=O)C(O)(c1ccccc1)c1ccccc1", "note": "(stereo not drawn)", "binding response (% of control)": "inactive: 101%"},
      {"smiles": "Cc1ccccc1C(=O)NCC1(N2CCCCC2)CCCCC1", "binding response (% of control)": "inactive: 106%"},
      {"smiles": "C=CCN1CCN(CCOC(=O)C(O)(c2ccccc2)c2ccccc2)CC1", "binding response (% of control)": "inactive: 103%"},
      {"smiles": "CCN1CCCC(OC(=O)C2(O)c3ccccc3C=Cc3ccccc32)C1", "note": "(stereo not drawn)", "binding response (% of control)": "inactive: 113%"},
      {"smiles": "O=C(OC1CN2CCC1CC2)C(CO)(c1ccccc1)c1ccccc1", "note": "(stereo not drawn)", "binding response (% of control)": "inactive: 101%"},
      {"smiles": "CN(C)c1cccc(C(=O)NCC2(N(C)C)CCCCC2)c1", "binding response (% of control)": "inactive: 105%"}
    ]}
  ]
}
